Test system: Vero
Experiment: Cytotoxicity against african green monkey Vero cells up to 4.67 ug/ml
Details: chlorocebus sabaeus

Structure (SMILES) | Activity
NC(=O)c1cc[n+](CCC[n+]2cccc(/C=N/O)c2)cc1.[Br-].[Br-] | Non-toxic
NC(=O)c1cc[n+](CCC[n+]2ccc(/C=N/O)cc2)cc1.[Br-].[Br-] | Non-toxic
O/N=C/c1cccc[n+]1-c1ccc(-[n+]2ccccc2/C=N/O)o1.[Br-].[Br-] | Non-toxic
O/N=C/c1ccc[n+](-c2ccc(-[n+]3cccc(/C=N/O)c3)s2)c1.[Cl-].[Cl-] | Non-toxic
NC(=O)c1cc[n+](CCCC[n+]2ccccc2/C=N/O)cc1.[Br-].[Br-] | Non-toxic
O/N=C/c1cc[n+](-c2ccc(-[n+]3ccc(/C=N/O)cc3)s2)cc1.[Cl-].[Cl-] | Non-toxic
O/N=C/c1cc[n+](CCCC[n+]2ccc(/C=N/O)cc2)cc1.[Br-].[Br-] | Non-toxic
O/N=C/c1ccc[n+](-c2cc(-[n+]3cccc(/C=N/O)c3)on2)c1.[Br-].[Br-] | Non-toxic
O/N=C/c1cccc[n+]1-c1cc(-[n+]2ccccc2/C=N/O)on1.[Br-].[Br-] | Non-toxic
O/N=C/c1cccc[n+]1CCCC[n+]1ccccc1/C=N/O.[Br-].[Br-] | Non-toxic
O/N=C/c1cc[n+](-c2ccc(-[n+]3ccc(/C=N/O)cc3)o2)cc1.[Br-].[Br-] | Non-toxic
O/N=C/c1cccc[n+]1CCC[n+]1ccccc1/C=N/O.[Br-].[Br-] | Non-toxic
CS(=O)(=O)[O-].CS(=O)(=O)[O-].O/N=C\c1ccc[n+](COC[n+]2cccc(/C=N/O)c2)c1 | Non-toxic
NC(=O)c1cc[n+](-c2ccc(-[n+]3ccc(/C=N/O)cc3)s2)cc1.[Cl-].[Cl-] | Non-toxic
NC(=O)c1cc[n+](CCC[n+]2ccccc2/C=N/O)cc1.[Br-].[Br-] | Non-toxic
O/N=C/c1cc[n+](-c2cc(-[n+]3ccc(/C=N/O)cc3)on2)cc1.[Br-].[Br-] | Non-toxic
CS(=O)(=O)[O-].CS(=O)(=O)[O-].O/N=C/c1cc[n+](COC[n+]2ccc(/C=N/O)cc2)cc1 | Non-toxic
CS(=O)(=O)[O-].CS(=O)(=O)[O-].O/N=C/c1cccc[n+]1COC[n+]1ccccc1/C=N/O | Non-toxic
C[n+]1ccccc1/C=N/O.[I-] | Non-toxic
NC(=O)c1cc[n+](CCCC[n+]2ccc(/C=N/O)cc2)cc1.[Br-].[Br-] | Non-toxic
NC(=O)c1cc[n+](-c2ccc(-[n+]3cccc(/C=N/O)c3)s2)cc1.[Cl-].[Cl-] | Non-toxic
O/N=C/c1cc[n+](CCC[n+]2ccc(/C=N/O)cc2)cc1.[Br-].[Br-] | Non-toxic
NC(=O)c1cc[n+](CCCC[n+]2cccc(/C=N/O)c2)cc1.[Br-].[Br-] | Non-toxic
O/N=C/c1ccc[n+](CCCC[n+]2cccc(/C=N/O)c2)c1.[Br-].[Br-] | Non-toxic
NC(=O)c1cc[n+](-c2ccc(-[n+]3ccc(C(N)=O)cc3)o2)cc1.[Br-].[Br-] | Non-toxic
O/N=C/c1ccc[n+](-c2ccc(-[n+]3cccc(/C=N/O)c3)o2)c1.[Br-].[Br-] | Non-toxic
O/N=C/c1cccc[n+]1-c1ccc(-[n+]2ccccc2/C=N/O)s1.[Cl-].[Cl-] | Non-toxic
O/N=C\c1ccc[n+](CCC[n+]2cccc(/C=N/O)c2)c1.[Br-].[Br-] | Non-toxic

Reference: ChEMBL document CHEMBL1157721, “Bisquaternary pyridinium oximes: Comparison of in vitro reactivation potency of compounds bearing aliphatic linkers and heteroaromatic linkers for paraoxon-inhibited electric eel and recombinant human acetylcholinesterase” (2010)
